We go through one compound from patent publication US9522908B2, “Ezrin inhibitors and methods of making and using” (Georgetown University, priority 2010, dated 2016).

Protein sequences, listed by entry. Tags and fused reporters are not part of them.
UniProt P26040, whole entry: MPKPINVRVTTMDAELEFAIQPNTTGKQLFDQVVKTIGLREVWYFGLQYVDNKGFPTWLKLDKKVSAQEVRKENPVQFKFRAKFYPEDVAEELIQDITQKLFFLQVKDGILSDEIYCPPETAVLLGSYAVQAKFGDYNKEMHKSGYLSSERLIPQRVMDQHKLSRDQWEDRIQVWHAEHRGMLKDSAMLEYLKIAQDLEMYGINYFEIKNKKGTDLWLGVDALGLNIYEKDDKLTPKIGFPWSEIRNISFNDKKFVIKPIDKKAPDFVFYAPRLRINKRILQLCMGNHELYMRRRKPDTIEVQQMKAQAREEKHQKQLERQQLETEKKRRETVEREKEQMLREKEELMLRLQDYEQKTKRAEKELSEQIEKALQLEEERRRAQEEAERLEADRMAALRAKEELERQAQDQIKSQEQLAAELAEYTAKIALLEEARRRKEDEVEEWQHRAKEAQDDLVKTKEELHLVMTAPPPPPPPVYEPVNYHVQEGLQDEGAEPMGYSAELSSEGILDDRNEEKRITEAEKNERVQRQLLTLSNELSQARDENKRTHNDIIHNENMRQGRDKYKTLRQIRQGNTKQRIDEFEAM
UniProt P41743, whole entry: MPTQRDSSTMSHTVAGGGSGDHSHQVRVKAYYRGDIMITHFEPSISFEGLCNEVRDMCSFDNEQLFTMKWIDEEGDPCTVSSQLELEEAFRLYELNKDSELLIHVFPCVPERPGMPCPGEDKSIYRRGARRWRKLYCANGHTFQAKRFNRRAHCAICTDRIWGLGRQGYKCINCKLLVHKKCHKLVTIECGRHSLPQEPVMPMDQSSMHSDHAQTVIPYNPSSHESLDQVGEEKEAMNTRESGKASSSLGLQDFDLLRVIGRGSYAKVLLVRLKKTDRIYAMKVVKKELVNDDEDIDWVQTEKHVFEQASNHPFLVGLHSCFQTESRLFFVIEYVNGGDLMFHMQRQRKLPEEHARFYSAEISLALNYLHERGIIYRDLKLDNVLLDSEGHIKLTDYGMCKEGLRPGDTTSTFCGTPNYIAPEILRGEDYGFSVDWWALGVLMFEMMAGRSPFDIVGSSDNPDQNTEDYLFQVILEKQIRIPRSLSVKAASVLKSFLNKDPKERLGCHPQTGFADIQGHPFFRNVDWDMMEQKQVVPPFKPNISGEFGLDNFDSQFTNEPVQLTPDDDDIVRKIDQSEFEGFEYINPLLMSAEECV

Broadly, the IC50 is the concentration needed to halve the response being measured. For orientation: Kd means the concentration at which binding is half-saturated.

Structures are written as SMILES.

For data set [1], the system named is K7M2 metastatic OS tumor cells. In words: In vivo experimental lung metastasis model, K7M2 cells. Set-up: species or system mice. As to the method:
(§1) FIG. 6 illustrates NSC305787 and NSC668394 inhibit in vivo OS metastatic growth in lungs. (A) K7M2 metastatic OS tumor cells (1×10^6) were injected via tail vein. Vehicle (1% DMSO), NSC305787 (240 μg/kg) and NSC668394 (226 μg/kg) were injected 5 days a week intraperitoneally. Kaplan-Meier survival curves show percent survival for NSC305787 and NSC668394 treatment over time. Median survival of vehicle, NSC305787 and NSC668394 treated K7M2 cells were 28.5, 50, and 49 days after tumor cell injection. […] (B) Fluorescence pictures of whole lungs are given. There is a significant decrease in the number of the GFP expressing metastatic foci in the lung tissues of the NSC305787 and NSC668394 treated groups. (C) GFP expressing ezrin independent MNNG, human OS cells were injected to mice and treated with vehicle (1% DMSO), NSC305787 (240 μg/kg) and NSC668394 (226 μg/kg). Survival of each group is not different probably because MNNG is an ezrin independent cell line. Median survival of vehicle, NSC305787 and NSC668394 treated MNNG cells were 50.5, 49, and 48.5 days after tumor cell injection. (D) Fluorescent images of the lung tissues of this group are given. There is not a significant difference in the number of the GFP expressing metastatic foci in the lung tissues of the NSC305787 and NSC668394 treated groups. […]

For data set [2], the system named is K12 cells. In words: Invasion of HUVEC monolayer by K12 cells (ECIS, xCELLigence). As to the method: (§2) FIG. 3 illustrates NSC305787 and NSC668394 inhibit ezrin mediated invasion of OS cells. (A) Endogenous ezrin protein levels in K12 and K7M2 cells are shown. Equal loading is determined by blotting with an actin antibody. Both NSC305787 (B) and NSC668394 (C) at 1 μM and 10 μM concentrations inhibited invasion of K7M2 cells through a HUVEC monolayer when compared to the control (1% DMSO). […] Error bars represent standard deviation from duplicate data points. The experiments were performed in duplicates. Cell index is a measurement parameter with no units. In this assay a decrease in cell index represents invasion of HUVEC layer by OS cells. It is measured according to the following formula: Cell index=((Rt−R0)/F where, Rt is resistance at time point t, R0 is background resistance (measured with media alone, no cells), and F is frequency at which measurement is taken (10 kHz).
(§3) The anti-invasive potential of NSC305787 and NSC668394 were evaluated by using electric cell impedance sensing (ECIS) on a Roche xCELLigence system (Roche, Indianapolis, Ind.). Briefly, HUVEC cells (25,000/well) were seeded in a 96-well plate in EGM-2 media (Lonza, Basel, CH). […] This time point was accepted as 0 hr of treatment and invasion was monitored during the following 6 hrs by measuring changes in resistance at the cell-electrode interphase.

The test system of data set [3] is Gli reporter (hedgehog pathway). In words: Gli reporter assays. The following applies: data not shown. In kind it is cell-based, mammalian cell lines. A general note: A reporter such as luciferase makes a cellular process visible.
Data set [4] has as its system zebrafish embryos. In words: Zebrafish embryo development assay. As to conditions: 10 μM. As to the method: Animals. Zebrafish (Danio rerio) were raised, maintained and crossed as described before (Westerfield, M. University of Oregon Press, Eugene. Or., 1993). Development of embryos was studied at 28° C. and staging was determined by morphological characteristics (Kimmel, C. B., et al., Dev. Dyn. 203, 253-310 (1995)).
A translation blocking anti-ezrin morpholino oligonucleotide (MO), described and validated by Link et al. (Link, V., et al., J. Cell Sci., 119, 2073-2083 (2006)), MO1, 5′-[…] (SEQ ID NO:1), was synthesized by Gene-Tools, LCC (Philomath, Oreg.). MOs were microinjected into one to four cell stage embryos.
Zebrafish embryos were arrayed, three per well, in 96-well plates. Compounds were added at 1-33 μM concentrations. Embryos were observed, and photographed, at 70% epiboly, 24-28 hours post fertilization (hpf) and 48 hpf.

In data set [5] the test system is PKC,τ, PKC,α and PKC,γ. In words: Radioactive in vitro kinase assay of PKC isoforms with nonspecific substrate. As to conditions: doses tested maximum 100 μM. On the procedure:
(§4) FIG. 2 illustrates NSC305787 and NSC668394 inhibit ezrin T567 phosphorylation. (A) K7M2 metastatic OS cell line was treated with NSC305787 (10 μM) and NSC668394 (10 μM) for 6 hours. NSC305787 and NSC668394 inhibited phosphorylation of endogenous ezrin protein and its interaction with actin without altering cellular ezrin protein levels (B and C). The effect of NSC305787 and NSC668394 on recombinant ezrin phosphorylation by recombinant PKC, was tested in an in vitro kinase assay. Phoshorylation of ezrin was detected by a phosphospecific antibody following PAGE and immunoblotting. Experiments were repeated three times and densitometric analysis of bands was used for calculation of % inhibition (graphs). Error bars represents s.d. from three independent experiments. Kinase activities of PKC,τ, PKC,α and PKC,γ were also evaluated with a nonspecific substrate in the presence of NSC305787 and NSC668394 by a radioactive in vitro kinase assay. Data analysis was done by using a sigmoidal dose-response equation where log EC50 for each curve with the ezrin substrate and the non-specific substrate were compared to each other (P=0.0118 for NSC305787 and P=0.0084 for NSC668394).
(§5) 500 ng of recombinant ezrin protein in kinase assay mix (200 μM ATP) was incubated with the compounds at 1-100 μM concentrations for 15 minutes on ice, then 50 ng PKC,τ (Millipore, Billerica, Mass.) was added. […]

Data set [6] deals with ezrin T567 phosphorylation by PKC,τ (Mus musculus, UniProt P26040). In words: In vitro kinase assay: recombinant ezrin T567 phosphorylation by PKC,τ. The following applies: read-out: IC50, phosphorylation of ezrin by PKC,τ, phosphospecific antibody immunoblot densitometry. As to the method:
as §4, §5
For orientation: A western blot detects proteins with antibodies after separation by electrophoresis.

For data set [7], the target named is ezrin / poly-A-binding protein 1 (PABP1) interaction (Mus musculus, UniProt P26040). In words: Ezrin-PABP1 interaction by immunoprecipitation and western blot. As to conditions: cells treated 60 min prior to immunoprecipitation. On the procedure: (A) Total cell lysates from K7M2 osteosarcoma cells were immunoprecipitated by using an anti-ezrin antibody. As a control, non-specific total IgG was used. Immunoprecipitates were run on SDS-PAGE and Western Blot was performed using anti-ezrin (lower panel) and anti-PABP1 (upper panel) antibodies. PABP1 protein was detected in immunoprecipitates of ezrin, suggetsing that these two proteins interact with each other in a protein complex. (B) Ezrin-PABP1 interaction was also evaluated in an ELISA experiment where recombinant ezrin protein was immmobilized on surface and total cell lysates from osteosarcoma cells were applied on top. Amount of PABP1 binding to ezrin on the surface was detected by a anti-PABP1 primary antibody followed by enzyme linked secondary antibody. (C) Immunoprecipitation and western experiment was prepared as described in panel A. Cells were treated with NSC305787 (compound 8) and NSC668394 (compound 16) for 60 min prior to immunoprecipitation. Both NSC305787 and NSC668394 inhibited interaction of PABP1 with ezrin

Data set [8] deals with MNNG, human OS cells. In words: In vivo experimental lung metastasis model, ezrin independent MNNG cells. Set-up: species or system mice. On the procedure:
as §1

For data set [9], the system named is K7M2 cells. In words: Invasion of HUVEC monolayer by K7M2 cells (ECIS, xCELLigence). The following applies: 1 μM and 10 μM, vs control 1% DMSO. On the procedure:
as §2, §3

For data set [10], the system named is GFP expressing K7M2 OS cells. In words: Pulmonary metastasis assay (PuMA), lung organ culture. The following applies: 10 μM. As to the method: FIG. 5 illustrates NSC305787 and NSC668394 inhibit OS metastatic growth in lung organ culture. GFP expressing K7M2 OS cells (2×10^5) were injected to tail vein of female BALB/c mice. Within 15 min of tumor cells injection, mice were euthanized and lungs were injected with a mixed agarose/medium solution and then were removed. Complete transverse sections (1-2 mm in thickness) were made from each lobe and 4-5 lung sections were placed on a single 1.5×0.7 cm sterile Gelfoam section. Lung sections were incubated at 37° C. in humidified conditions of 5% CO2. Fresh medium or small molecules (10 μM) were replaced every other day. (A) Quantitation of the fluorescence signal from NSC305787 (10 μM) and NSC668394 (10 μM) treated organ cultures over time. Metastatic burden was quantified by measuring the fluorescent area of metastatic cells in each lung section at each time point and was expressed as mean fluorescent area (mean fluorescent area of each lung section over 4 lung sections). Mean fluorescent area was normalized to 100 pixels for day 0 to allow quantitative evaluation of metastatic progression over time. Data are represented as mean .s.d. from three independent experiments. (B) Fluorescence pictures of a representative culture treated with 10 μM NSC305787 and 10 μM NSC668394 are given on the right panel. […]

Data set [11] addresses ezrin in K7M2 OS cells (Mus musculus, UniProt P26040). In words: Endogenous ezrin T567 phosphorylation and actin binding in K7M2 cells (immunoprecipitation/immunoblot). As to conditions: 10 μM. On the procedure:
(§6) K7M2 cells that were treated with embodied compounds and resolved protein lysates were immunoblotted for co-precipitated phosphorylated ezrin (TOP), or actin (BOTTOM). 4.0×10^6 K7M2 cells were plated in 15 cm dishes. After 24 h, the plates are at least 70% confluent. Media was removed and 10 μM of compound in SF DMEM was added. After the ezrin protein was incubated for 5 h with the indicated compound, the plates were lysed with PLB containing Calyculin A. 2 μL of Ezrin Ab and 10 μM of the compound (prepared in PLB) were added to the lysate and allowed to incubate overnight (14 h), followed by tumbling with Agarose IgG beads. The mixture was run on 10% acrylamide gel and transferred overnight.
as §6, with “removed and either 7 μM or 10 μM” for “removed and 10 μM”
For analysis of actin binding to FL and mutant ezrin, K12 cell lysate was incubated with recombinant ezrin protein, then subjected to immunoprecipitation with ezrin antibody (Sigma, St. Louis, Mo.) and immunoblotted with actin antibody (Santa Cruz, Santa Cruz, Calif.). For analysis of inhibition of small molecules on ezrin phosphorylation and actin binding, K7M2 cell lysates were treated with compounds at 10 μM concentration for 6 hours, followed by immunoprecipitation with the ezrin antibody and immunoblotted with phospho-ezrin (Cell Signaling, Danvers, Mass.), actin and ezrin antibodies.

Data set [12] has as its target PKC,τ (Homo sapiens, UniProt P41743). In words: SPR direct binding to PKC,τ (Biacore). The following applies: read-out: KD, binding to PKC,τ, data not shown. Background: SPR reads the build-up and loss of mass on a sensor chip optically.
The subject of data set [13] is K7M2, K12 and HUVEC cells. In words: Toxicity to cells at invasion assay concentrations. The following applies: 1 μM and 10 μM; data not shown. As to the method: Chemotaxis experiments were performed in 96 well Boyden chamber as described previously (Chen, K., et al., Pediatr. Blood Cancer, 51, 349-355 (2008)). To measure effect of compounds on cellular toxicity, WST viability assay (Roche, Indianapolis, Ind.) was performed in parallel to chemotaxis experiments.

Take `O=C1C=C(NCCc2cc(Br)c(O)c(Br)c2)C(=O)c2ncccc21`: the “number of GFP expressing metastatic foci in lung tissues” value in data set [1] (K7M2 cells) is recorded as “significant decrease”; in data set [8] (MNNG cells), “not a significant difference”. Besides, the “median survival after tumor cell injection” value in data set [1] (K7M2 cells by tail vein, i.p. 5 days a week, vehicle 28.5 days) is recorded as 49 days; in [8] (MNNG cells by tail vein, i.p. 5 days a week, vehicle 50.5 days), 48.5 days. Besides, the “invasion of K12 cells” value in data set [2] (1 μM) is recorded as “did not have any effect”; in data set [2] (10 μM), “inhibited invasion by K12 cells slightly”. For the same compound, in data set [3], the “inhibition in Gli reporter assays” value was “did not observe any significant inhibition”. Moreover, in data set [4], the “cycloptic embryos at 28 hpf” value was 98%. Further, the “inhibition of PKC activity” value in data set [5] is listed as “did not show any significant inhibition”. In [6], the IC50 amounted to 7.81 µM. In addition, the “interaction of PABP1 with ezrin” value in [7] is recorded as “inhibited”. Also, the “invasion of K7M2 cells through HUVEC monolayer” value in [9] is reported as “inhibited invasion”. Also, the “lung metastasis of K7M2 cells in lung organ culture (GFP fluorescence)” value in data set [10] is listed as “significantly inhibited”. Besides, in data set [11], the “cellular ezrin protein levels” value was “without altering cellular ezrin protein levels”. Further, the “T567 phosphorylation of endogenous ezrin” value in data set [11] (6 hours) is “inhibited”. Besides, the “actin binding of ezrin” value in data set [11] (6 hours) is given as “inhibited”. In addition, in data set [12], the Kd came to 160 µM. The “toxicity to K7M2, K12 and HUVEC cells” value in [13] is on record as “not toxic”.
